Tested on: MNs with mutant SOD1 gene (L144FVX)
Assay: Large scale screen using ALS MN (MN survival readout)
Assay type: cell-based, human
Method: iPS cell cells containing LNI cassette were dissociated into single cells using Accutase, and seeded together with 1 μg/ml of doxycycline (TAKARA, Kusatsu, Japan) in N3 medium containing 1 μM retinoic acid, 1 μM SAG, 10 ng/ml BDNF, 10 ng/ml GDNF, and 10 ng/ml NT-3 on a 96 well plate (BD Bioscience) coated with Matrigel. The cells were fixed and stained on days 7 and 14. The number of viable MNs stained with βIII-tubulin was quantified by IN Cell Analyzer 6000 and expressed as the number of day 14/day 7. […] In this assay, therefore, βIII-tubulin positive neurons were defined as MN. Neurite and cell body were detected by optimized fluorescence levels, and the number of cell bodies having neurite was counted as the number of surviving neurons using IN Cell Developer toolbox software 1.9.
iPS cell cells containing LNI cassette were dissociated into single cells using Accutase, and seeded together with 1 ng/ml of doxycycline in N3 medium containing 1 μM RA, 1 μM SAG, 10 ng/ml BDNF, 10 ng/ml GDNF and 10 ng/ml NT-3 on a 96 well plate (BD Bioscience) coated with Matrigel. The libraries used for drug screening were Microsource US Drugs (Microsource Discovery Systems), Microsource International Drugs (Microsource Discovery Systems), and kinase inhibitor purchased from EMD and Selleck Chemicals. […] The number of viable MNs stained with βIII-tubulin was quantified by IN Cell Analyzer 6000.

In the case of `C[C@@H]1C[C@H]2[C@@H]3C[C@H](F)C4=CC(=O)C=C[C@]4(C)[C@@]3(F)[C@@H](O)C[C@]2(C)[C@@]1(O)C(=O)CO` [flumethasone], the MN index is reported as 6.756.

— US20200368267A1, “PROPHYLACTIC AND/OR THERAPEUTIC AGENT FOR AMYOTROPHIC LATERAL SCLEROSIS” (KYOTO UNIVERSITY, priority 2017, published 2020)
